## Measured melting point values of organic chemicals

Values as listed in the OPERA 2.9 repository of K. Mansouri.

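These are experimental values that the OPERA curators gathered from public databases to train and test their QSAR models. A listed value is a point estimate from one report or more. Method and conditions are not stated for these values. The measured form (salt, isomer or mixture) is not always the one drawn. Some entries may be limits or estimates that an upstream database listed as plain numbers.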

The melting point is given in degrees Celsius.
"via" names the databases from which the curators took the value.

{"smiles": "CC(=O)N(c1ccccc1)c1nc(C=O)cs1", "name": "N-(4-formyl-1,3-thiazol-2-yl)-N-phenylacetamide", "MP (°C)": "151", "via": "OCHEM"}
{"smiles": "NC(=O)NC(=O)CCCl", "name": "N-Carbamoyl-3-chloropropanamide", "MP (°C)": "172", "via": "OCHEM"}
{"smiles": "COc1ccc(SCCC(=O)O)cc1", "name": "3-[(4-methoxyphenyl)thio]propanoic acid", "MP (°C)": "82", "via": "OCHEM"}
{"smiles": "O=S(=O)(Cl)c1ccc2oc3ccccc3c2c1", "name": "dibenzo[b,d]furan-2-sulfonyl chloride", "MP (°C)": "135", "via": "OCHEM"}
{"smiles": "Cc1c(C(=O)O)oc2ccc(Br)cc12", "name": "5-bromo-3-methyl-benzofuran-2-carboxylic Acid", "MP (°C)": "250", "via": "OCHEM"}
{"smiles": "Nc1cccc(S(=O)(=O)CCOS(=O)(=O)O)c1", "name": "2-((3-Aminophenyl)sulphonyl) hydrogensulphate", "MP (°C)": "290", "via": "eChemPortal"}
{"smiles": "O=C(O)CCOc1cccc(Br)c1", "name": "3-(3-bromophenoxy)propanoic acid", "MP (°C)": "64.5", "via": "OCHEM"}
{"smiles": "Nc1ccc(N2C(=O)c3ccccc3C2=O)c(Cl)c1", "name": "N-(4-Amino-2-chlorophenyl)phthalimide", "MP (°C)": "205", "via": "OCHEM"}
{"smiles": "O=C1CCCc2c1[nH]c1ccccc21", "name": "2,3,4,9-tetrahydro-1H-carbazol-1-one", "MP (°C)": "170", "via": "OCHEM"}
{"smiles": "CCN(CC)c1ccc2cc(-c3n(C)c4ccccc4[n+]3C)c(=O)oc2c1.[Cl-]", "MP (°C)": "349.8", "via": "eChemPortal"}
{"smiles": "Cc1nc2ccccc2n1CCO", "name": "2-(2-Methyl-1H-benzimidazol-1-yl)ethan-1-ol", "MP (°C)": "148", "via": "OCHEM"}
{"smiles": "N#CCc1cccc(C(=O)O)c1", "name": "3-(Cyanomethyl)benzoic acid", "MP (°C)": "167", "via": "OCHEM"}
{"smiles": "CCC(c1ccc(OCCN(CC)CC)cc1)C(CC)c1ccc(OCCN(CC)CC)cc1.Cl.Cl", "stereo": "configuration not stated", "MP (°C)": "226", "via": "OCHEM"}
{"smiles": "Clc1nc(-c2cccs2)nc2ccccc12", "name": "4-Chloro-2-(thiophen-2-yl)quinazoline", "MP (°C)": "124", "via": "OCHEM"}
{"smiles": "O=C(O)c1ccc2c(c1Cl)C(=O)c1ccccc1C2=O", "MP (°C)": "200", "via": "OCHEM"}
{"smiles": "Nc1cc(-c2ccco2)no1", "name": "3-(Furan-2-yl)-1,2-oxazol-5-amine", "MP (°C)": "97", "via": "OCHEM"}
{"smiles": "CN(C)C(=O)Cc1ccc(N)cc1", "name": "2-(4-Aminophenyl)-N,N-dimethylacetamide", "MP (°C)": "98", "via": "OCHEM"}
{"smiles": "Nn1c(-c2ccc(Cl)cc2Cl)n[nH]c1=S", "MP (°C)": "91", "via": "OCHEM"}
{"smiles": "CCCN1C(=O)N=C(O)C1=O", "name": "4-Hydroxy-1-propyl-1H-imidazole-2,5-dione", "MP (°C)": "106", "via": "OCHEM"}
{"smiles": "COc1c(OC)c(OC(C)=O)c2c(Cl)cccc2c1OC(C)=O", "name": "5-Chloro-2,3-dimethoxy-1,4-naphthalenediyl diacetate", "MP (°C)": "134", "via": "OCHEM"}
{"smiles": "Cc1c(C(=O)O)oc2c(F)cccc12", "name": "7-Fluoro-3-methyl-benzofuran-2-carboxylic acid", "MP (°C)": "237", "via": "OCHEM"}
{"smiles": "Cc1ccc(C(=O)CBr)cc1[N+](=O)[O-]", "name": "2-bromo-1-(4-methyl-3-nitrophenyl)ethanone", "MP (°C)": "46", "via": "OCHEM"}
{"smiles": "COC(=O)c1c(O)cc(=O)n2c1CCC2", "MP (°C)": "168", "via": "OCHEM"}
{"smiles": "O=C(O)c1c[nH]c(=O)[nH]1", "name": "2-oxo-2,3-dihydro-1H-imidazole-4-carboxylic acid", "MP (°C)": "234", "via": "OCHEM"}
{"smiles": "Nc1ccc(OCc2ccccc2)nc1", "name": "6-(benzyloxy)pyridin-3-amine", "MP (°C)": "43", "via": "OCHEM"}
{"smiles": "O=C(c1cnoc1)c1ccccc1O", "name": "(2-Hydroxyphenyl)(1,2-oxazol-4-yl)methanone", "MP (°C)": "114", "via": "OCHEM"}
{"smiles": "O=C(O)CSCC(=O)N1CCOCC1", "name": "[(2-morpholin-4-yl-2-oxoethyl)thio]acetic acid", "MP (°C)": "120", "via": "OCHEM"}
{"smiles": "CCOc1ccccc1-c1csc(N)n1", "name": "4-(2-ethoxyphenyl)-1,3-thiazol-2-amine", "MP (°C)": "210", "via": "OCHEM"}
{"smiles": "O=C1N[C@H](C(=O)O)CS1", "name": "Procysteine", "MP (°C)": "168", "via": "OCHEM"}
{"smiles": "CC(=O)NC1CC(C)(C)NC(C)(C)C1", "name": "Acetamide, N-(2,2,6,6-tetramethyl-4-piperidinyl)-", "MP (°C)": "110.5", "via": "eChemPortal"}
{"smiles": "O=C(O)c1cn2cccnc2n1", "name": "Imidazo[1,2-a]pyrimidine-2-carboxylic acid", "MP (°C)": "256", "via": "OCHEM"}
{"smiles": "Cc1c(C)n(Cc2ccco2)c2ncnc(N)c12", "MP (°C)": "181", "via": "OCHEM"}
{"smiles": "O=C(O)Cn1cccn1", "name": "2-(1H-Pyrazol-1-Yl)Acetic Acid", "MP (°C)": "140", "via": "OCHEM"}

Excerpt, the final 3 entries:

{"smiles": "O=C(O)c1cn2cccnc2n1", "name": "Imidazo[1,2-a]pyrimidine-2-carboxylic acid", "MP (°C)": "256", "via": "OCHEM"}
{"smiles": "Cc1c(C)n(Cc2ccco2)c2ncnc(N)c12", "MP (°C)": "181", "via": "OCHEM"}
{"smiles": "O=C(O)Cn1cccn1", "name": "2-(1H-Pyrazol-1-Yl)Acetic Acid", "MP (°C)": "140", "via": "OCHEM"}